Here are results for one molecule from ChEMBL document CHEMBL4837263, “N-Aromatic-Substituted Indazole Derivatives as Brain-Penetrant and Orally Bioavailable JNK3 Inhibitors” (ACS Med Chem Lett, 2021).

Sequences of proteins named here, by UniProt entry; tags and fusion partners are left off.
UniProt Q16539, whole entry: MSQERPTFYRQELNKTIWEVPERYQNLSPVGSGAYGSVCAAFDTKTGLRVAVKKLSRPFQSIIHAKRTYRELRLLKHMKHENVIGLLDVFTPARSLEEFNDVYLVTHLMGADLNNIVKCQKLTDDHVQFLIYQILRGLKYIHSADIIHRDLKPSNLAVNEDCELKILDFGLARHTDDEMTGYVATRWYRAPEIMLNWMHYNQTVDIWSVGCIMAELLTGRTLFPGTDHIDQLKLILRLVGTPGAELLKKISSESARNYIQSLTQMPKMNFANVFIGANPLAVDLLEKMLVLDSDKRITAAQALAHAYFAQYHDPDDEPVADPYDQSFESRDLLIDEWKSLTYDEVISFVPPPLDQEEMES

Broadly, the IC50 is the midpoint of a concentration-inhibition curve.

For the test, the target named is Mitogen-activated protein kinase 14 (Homo sapiens, UniProt Q16539). The test is described as follows: Inhibition of human p38alpha using MBP as substrate by [gamma-33P]-ATP assay.

For the molecule `Cc1nc2c(cnn2-c2csc(C(=O)NC3COC3)c2)cc1Nc1c(F)cccc1Cl`, half-maximal inhibition (IC50) required 110 nM.
